Laboratory results from patent US20210343368A1, “Method for Engineering Synthetic Cis-Regulatory DNA” (Max-Delbrück-Centrum für Molekulare Medizin in der …, priority 2018, published 2021).

Tested on: MES-hGICs-MGT #1low and PN-hGICs-MGT #1low cells
Assay: Phenotypic screening of sLCR response to selected factors, FACS
Type: cell-based, human
Conditions: compared with hMG co-culture / TNFα
Procedure: To investigate adaptive responses to external signaling in MES-hGICs-MGT #1^low and PN-hGICs-MGT #1^low cells, we next performed a phenotypic screening. NBE-propagated hGICs were stimulated with selected factors (cytokines, growth factors, compounds) and FACS analyzed 48 hours after stimulation (FIG. 13b). […] This outcome was reproducible across two independent MES-GBM sLCRs (MGT #1-2) and follow up validation. Instead, the PN phenotype appeared to be less responsive to changes induced by external signaling. (FIG. 13b-c and 17). MES GBM specification appeared to be additive to a pre-existing endogenous phenotype as gauged by surface expression of CD133 and PNGT #2. Indeed, TNFα was previously reported as a prominent MES-GBM signaling pathway and inducer of a PN-to-MES transition.

With “IL-2: inflammatory mediator derived from the adaptive immune system” the “direct MGT #1 activation” value was “did not trigger direct MGT #1 activation to a comparable extent”.
